# Antibody variant affinities, Ab-14 light chain, assay B

The target is the same throughout: PDVDLGDISGINAS, from the HR2 region of SARS-CoV-2 spike.

Each scFv is VH, three GGGGS repeats, VL, as in the parent Ab-14, and differs from it in the CDRs of the light chain only.
VH: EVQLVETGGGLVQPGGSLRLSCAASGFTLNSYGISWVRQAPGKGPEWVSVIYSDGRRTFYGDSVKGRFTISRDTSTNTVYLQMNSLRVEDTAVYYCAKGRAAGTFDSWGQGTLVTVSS
VL: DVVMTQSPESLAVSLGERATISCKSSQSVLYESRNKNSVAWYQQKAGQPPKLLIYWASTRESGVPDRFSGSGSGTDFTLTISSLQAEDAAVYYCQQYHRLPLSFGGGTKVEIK

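The starting antibody came from a phage panning campaign against this peptide. This is the validation round: designs drawn from the data on random variants, tested in the same kind of assay. Group labels follow the data file (Ctrl: baseline library sampled from a position-specific scoring matrix, with some repeated check sequences; Rand: our label for a block that the file lists under HC and that is probably the random mutants of the ten best first-round binders; GP: Gaussian process model; HC: hill climbing; Gen: genetic algorithm; Gibbs: Gibbs sampling; a sequence that several methods proposed may carry one label only). AlphaSeq pools MATa yeast showing the antibodies with MATalpha yeast showing the peptide. After mating in shaken culture at 30 °C for 16 h, diploids were selected and their barcode pairs sequenced. Scores were corrected for input abundance and mapped to Kd with protein pairs of known affinity run in the same pool. The assay was run in six technical replicates.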

The parent's light chain CDRs are KSSQSVLYESRNKNSVA, WASTRES, QQYHRLPLS; each variant's own CDRs replace them letter for letter. This list holds designs with at most six substitutions. Values are apparent Kd, the geometric mean of the replicates that gave a signal; lower means stronger binding. Where no diploid with the target was found in any replicate, the entry reads "no signal": below detection, most likely a poor binder, though not proof of it. The list is sorted by this average, lowest first, undetected variants last. The range of this assay differs from that of the first round, and the authors advise against merging the two. Empty control strains, which show no peptide, gave a signal in 4% of pairings with all light chain designs; the median was 430 nM and 95% of these signals were weaker than 38 nM. No background was subtracted. A sequence that the file lists under several names has all its replicates pooled. The authors averaged sequences with at least three values out of six and counted those with two or fewer as poor binders. Of ten entries with the parent sequence, four were seen in most replicates (averages 2.2 nM to 240 nM), three in one and three in none, so single entries are noisy.

For KLSQSVEYESRNKNNVA | GASTRES | QQYHRLPLS [GP_Gen], the assay gave 310 pM (6 of 6 replicates).
For KQSWSVLFESRNKNSVA | DASTRES | QQYHRLPLS [GP_HC], the assay gave 400 pM (6 of 6 replicates).
For KLSQSVLYESRNKNSVA | GANTRES | QQYHRLPLS [GP_Gen], the assay gave 480 pM (6 of 6 replicates).
For KFSQSVLYEDRNKNSVA | NASQRES | QQYHRLPLS [GP_Gen], the assay gave 560 pM (6 of 6 replicates).
For KQSQSDLQESRNKNSVA | DASTRES | QQYHRLPLS [GP_HC], the assay gave 620 pM (6 of 6 replicates).
For KLSQSTLCESRNKNSVA | DASTRES | QQYHRLPLS [GP_HC], the assay gave 690 pM (6 of 6 replicates).
For KLPQSELYESRNKNSVA | NASTRES | QQYHRLPLS [GP_Gen], the assay gave 750 pM (6 of 6 replicates).
For KSLGSMLYESRNKNSVA | HASTRED | QQYHRLPLS [GP_HC], the assay gave 780 pM (6 of 6 replicates).
For KLSQSVLGESRNKNSVA | NASTRES | QQYHRLPLS [Ctrl+GP_Gen], the assay gave 840 pM (12 of 12 replicates).
For KGSQSVLYESLNKNSVA | QASTRES | QQYSRLPLS [Ctrl], the assay gave 900 pM (6 of 6 replicates).
For KSSISALEESRNKNSVA | EASTRES | QQYHRLPLS [GP_HC], the assay gave 1.0 nM (6 of 6 replicates).
For KLSQSDLYESRVKNSVA | GASTRES | QQYHRLPLS [GP_HC], the assay gave 1.1 nM (6 of 6 replicates).
For KFSQKVDYEHRTKNSVA | NASTRES | QQYHRLPLS [GP_HC], the assay gave 1.5 nM (6 of 6 replicates).
For KLSQSVLYESRNKNSVA | WASTRAS | QQYHRLPLS [Ctrl], the assay gave 1.6 nM (6 of 6 replicates).
For KSSQSVLYESRNVNNVA | GASTRES | QQYHRLPLS [Ctrl], the assay gave 1.8 nM (6 of 6 replicates).
For KSSQSVGHESRNGNSVA | DASTRES | QQYHRLPLS [Ctrl], the assay gave 2.7 nM (6 of 6 replicates).
For KQSQSVLYEWRNKNSVA | EASTRES | QQYHRLPLS [GP_HC], the assay gave 4.1 nM (6 of 6 replicates).
For KQSISVLQESRNKNSVA | DASTRES | QQYHRLPLS [GP_HC], the assay gave 4.2 nM (6 of 6 replicates).
For KSSQSVLYEFPNKNSVA | GASTRCS | QQYHRLPLS [Ctrl], the assay gave 4.5 nM (6 of 6 replicates).
For KFSQSFLYESRNSNAVA | EASTRES | QDYHRLPLS [GP_Gibbs], the assay gave 7.8 nM (6 of 6 replicates).
For KSSQSVGYESRNKNSVA | EASTRES | QMYHILPLS [Ctrl], the assay gave 9.9 nM (6 of 6 replicates).
For KCSQSVLYESRNKNSVA | WASTRES | QQYGRLPLS [Ctrl], the assay gave 11 nM (6 of 6 replicates).
For KSSQSELYESRHGNSVA | NASYRED | QQYHRLPLS [GP_Gibbs], the assay gave 12 nM (6 of 6 replicates).
For KSSQSVLYESDNKNSVA | WASTRES | QQYHRLPLS [Ctrl], the assay gave 16 nM (6 of 6 replicates).
For KLSMSDLYESRNSNSVA | MASTREK | QQYHRLPLS [GP_Gibbs], the assay gave 17 nM (6 of 6 replicates).
For KSSQSVLYESRNKNGVA | WASTRES | QQYHRLPLS [Ctrl], the assay gave 25 nM (6 of 6 replicates).
For KSSQSVFIESSNKNSVA | WASTRES | QQYARLPGS [Ctrl], the assay gave 25 nM (5 of 6 replicates).
For KSSISYLYESRNKSSVA | EASTRES | QTYHRLPLS [Rand], the assay gave 51 nM (6 of 6 replicates).
For KSSQSMLYESRNKNSVA | WASTREH | QQYHRWPLS [Ctrl], the assay gave 150 nM (5 of 6 replicates).
For KFSQSVLYESRVKNSVA | NASTRES | QWYHRLPLS [GP_HC], the assay gave 230 nM (1 of 6 replicates).
For KSSWSSLYEESNKNSVA | WASTRES | VQYHRLPLS [Ctrl], the assay gave no signal (0 of 6 replicates).
For KSSQSVLKESRNGNSVA | WASTRES | QQYHWLPLS [Ctrl], the assay gave no signal (0 of 6 replicates).
For KSSESVWYESRNKNSVA | MDSTRES | QQVHRLPLS [Ctrl], the assay gave no signal (0 of 6 replicates).
For KSSYSVLYESRNKNSVA | WASTRIS | NQYHRLPLC [Ctrl], the assay gave no signal (0 of 6 replicates).
For KQLQSGLYESLNKNSVA | WASTRES | QQYHRLLLS [Ctrl], the assay gave no signal (0 of 6 replicates).

From the AlphaSeq antibody data of Li et al. 2023 (doi:10.1038/s41467-023-39022-2), copy in the FLAb collection.